The source of these data is patent publication US6017877A, “Method and composition for treating thrombosis” (priority 1994, dated 2000).

Amino acid sequences for entries named in this document (tags omitted). Residues count along the entry.
UniProt P05106, 27-788: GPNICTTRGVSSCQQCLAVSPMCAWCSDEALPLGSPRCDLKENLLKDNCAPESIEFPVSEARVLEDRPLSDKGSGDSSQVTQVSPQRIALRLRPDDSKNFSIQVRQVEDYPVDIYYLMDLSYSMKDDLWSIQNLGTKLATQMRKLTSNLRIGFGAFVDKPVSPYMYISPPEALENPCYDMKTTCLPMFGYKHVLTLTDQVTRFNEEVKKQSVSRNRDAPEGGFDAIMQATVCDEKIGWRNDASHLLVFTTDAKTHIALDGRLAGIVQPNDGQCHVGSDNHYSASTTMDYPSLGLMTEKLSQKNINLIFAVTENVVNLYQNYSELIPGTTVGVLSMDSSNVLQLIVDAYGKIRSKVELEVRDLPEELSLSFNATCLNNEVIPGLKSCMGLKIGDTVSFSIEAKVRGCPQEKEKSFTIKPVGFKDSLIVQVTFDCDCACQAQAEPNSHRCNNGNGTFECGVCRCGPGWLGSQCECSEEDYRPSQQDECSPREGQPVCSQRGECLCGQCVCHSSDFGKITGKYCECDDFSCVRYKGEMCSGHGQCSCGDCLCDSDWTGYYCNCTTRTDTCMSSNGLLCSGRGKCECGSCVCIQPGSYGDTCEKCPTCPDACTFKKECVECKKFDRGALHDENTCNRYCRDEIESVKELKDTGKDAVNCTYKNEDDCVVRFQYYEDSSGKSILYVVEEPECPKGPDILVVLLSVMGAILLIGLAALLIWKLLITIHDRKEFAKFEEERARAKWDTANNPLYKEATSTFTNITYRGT
UniProt P06756, 891-1048 partner limits assumed: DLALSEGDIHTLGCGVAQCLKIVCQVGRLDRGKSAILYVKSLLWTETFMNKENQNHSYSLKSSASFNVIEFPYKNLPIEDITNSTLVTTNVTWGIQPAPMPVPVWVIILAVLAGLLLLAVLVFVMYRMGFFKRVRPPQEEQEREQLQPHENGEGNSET
UniProt P06756, 31-889 limits assumed: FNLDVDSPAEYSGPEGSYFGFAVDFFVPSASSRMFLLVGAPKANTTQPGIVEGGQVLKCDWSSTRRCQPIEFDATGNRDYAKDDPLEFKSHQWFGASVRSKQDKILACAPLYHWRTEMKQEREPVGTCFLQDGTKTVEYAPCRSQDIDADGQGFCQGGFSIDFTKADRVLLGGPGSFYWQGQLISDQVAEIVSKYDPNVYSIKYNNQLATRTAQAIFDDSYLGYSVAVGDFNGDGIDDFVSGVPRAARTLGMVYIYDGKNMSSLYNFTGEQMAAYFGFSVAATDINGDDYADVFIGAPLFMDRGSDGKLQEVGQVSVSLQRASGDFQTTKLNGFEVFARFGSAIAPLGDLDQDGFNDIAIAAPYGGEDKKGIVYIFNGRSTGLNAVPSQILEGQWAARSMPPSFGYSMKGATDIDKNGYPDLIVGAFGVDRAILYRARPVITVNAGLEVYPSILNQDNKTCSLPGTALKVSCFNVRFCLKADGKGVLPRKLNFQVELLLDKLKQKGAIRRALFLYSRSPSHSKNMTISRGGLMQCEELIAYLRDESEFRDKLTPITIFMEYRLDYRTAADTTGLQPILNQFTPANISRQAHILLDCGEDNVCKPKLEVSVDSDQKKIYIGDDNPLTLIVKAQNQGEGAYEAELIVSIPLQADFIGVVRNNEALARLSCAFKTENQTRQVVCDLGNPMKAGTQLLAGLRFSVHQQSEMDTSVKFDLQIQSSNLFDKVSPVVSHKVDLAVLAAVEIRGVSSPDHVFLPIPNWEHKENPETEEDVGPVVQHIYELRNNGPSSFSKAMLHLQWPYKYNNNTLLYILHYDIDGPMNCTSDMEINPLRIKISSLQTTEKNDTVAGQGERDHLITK

For series [1], the target named is T1, vitronectin receptor (Vn-R) (Homo sapiens, UniProt P05106+P06756).
T1 construct: from tissue; host or cells: human placenta
As to the kind of experiment: VnR binding, ELISA or liposome attachment assay (Table I). The method, then:
Receptor and ligand purifications were performed according to the methods in this Example or those in Examaple XI.C. Receptors were purified according to the procedures of Pytela et al. (Methods Enzymol. 144:475 (1987)), incorporated herein by reference. […] After extraction, the suspension was filtered over a Sepharose 6B column and then applied to a GRGDSPK column. Except where stated, all procedures were carried out at 4° C. The peptide column was washed with three volumes of Tris-buffered saline (TBS) containing 1 mM Ca^2+ and Ca^2+ and 25 mM OG and then with TBS containing 1 mM 25 mM octyl thioglucoside (OTG) at room temperature. […] Finally, Ca^2+ and Mg^+2 were added to eluted fractions to achieve final concentrations of 1 mM for both ions.
Maxisorp microtiter plates were coated with 2 μg/ml human vitronectin dissolved in PBS ([…]) and stored overnight at 4° C. The plates were washed two times with PBS-0.05% Tween-20 (wash buffer) and blocked by incubating with about 150 μl/well of assay buffer (1%, BSA (RIA grade or better) in 50 mM Tris-HCl, 100 mM NaCl, 1 mM MgCl2, CaCl2, MnCl2 pH 7.4) for 60 minutes. Dilutions of standards were prepared and putative inhibitors (Table 2) were dissolved in assay buffer. The blocked plates were emptied and 20 μl/well of inhibitor or standard solution was added to each well. Twenty-five μl of a 30 μg/ml solution of purified αV β3 in assay buffer was pipetted into the coated plate. The final concentration of receptor in the assay well was about 15 μg/ml. The plate was incubated on a shaker for 60 minutes. Meanwhile, for each microtite plate, 6 ml buffer solution containing 1.5 μg/ml of mouse monoclonal antibody specific for β3 is prepared. To this solution was added the secondary antibody which is anti-mouse-Fc-HRP antibody conjugate. For example, for one plate, 6 ml of a 1.5 μg/ml mouse Mab solution was prepared to which was added 1 μl of anti-mouse-Fc-HRP antibody stock, (this represents a 1:6000 dilution of the antibody--HRP conjugate). This mixture was allowed to incubate during the receptor-inhibitor incubation. The assay plates were washed 4 times with PBS-Tween and 50 μl/well of the antibody mixture was then pipetted into the plate for a 60 minute incubation. The plate was washed 4 times and the color reaction was developed with 50 μl/well of 0.67 mg/ml o-phenyldiamine in PBS containing 0.012% H2 O2. Alternatively, 16 mM citric acid, 50 mM Na2 PO4 at pH 5.0 can be used as a substrate buffer. The reaction is stopped with 50 μl/well 1 M H2 SO4. The plates were read at 492-405 nm and the data analyzed by four-parameters fit.
This assay was performed with minor modifications, according to the method of Pytela et al., Methods Enzymol. 144:475 (1987), incorporated herein by reference. Briefly, 1:4 mixture of labelled and unlabelled phosphatidylcholine (PC) liposomes was dissolved under nitrogen and diluted with an equal volume of purified receptor (purified as described in Example II) to achieve a fixed predetermined receptor-liposome concentration ratio. This mixture was then dialyzed overnight at 4° C. in phosphate buffered saline (PBS) containing 1 mM Ca^2+. An aliquot of the dialyzed sample was counted to assess radioactive content; the receptor-liposome mixture was then diluted to obtain a set radioactivity per unit volume.
Microtiter plates were coated with 10 μg of vitronectin. Non-specific sites were blocked for 2 hours at 37° C. in PBS containing 5 mg/ml BSA and 1 mM each of CaCl2 and MgCl2. The plates were then rinsed twice with PBS containing 1 mM Ca^+2 and Mg^+2, and 100 μl of the liposome-receptor mixture was added to each well. If necessary, peptides were added before this step in a 1-10% dilution. The plates were then incubated at 4° C. for 24 hours. The following day, the liquid in each well was aspirated and the plates were washed twice with PBS containing 1 mM Ca^+2 and Mg^+2. […]
Background: In an ELISA, binding on a coated surface is turned into a signal by an enzyme label.

Series [2] in a line: Bleeding time (Table IV). The class given is in vivo. The following applies: before dose. The procedure: Bleeding time was quantified at 1 hour before and one, three, and five hours after administration of the peptide. This was done by making a small (5 mm long and 1.5 mm deep) incision in the tongue and subsequently absorbing the exuded blood at this site every 15 seconds with a piece of Whatman filter paper until bleeding stopped. Platelet counts were determined with a Haema Count MK-4/HC platelet counting system.
Using the method described in Example V to measure ex vivo inhibition of platelet aggregation and the method described in Example VII to measure bleeding, four additional peptides were tested. These peptides included 11J, 11Q, 11K and 11V.

Series [3] in a line: Rabbit peripheral blood flow (PBF), laser dopler flow probe. The class given is in vivo. The note with it: bolus dose printed with drug. The procedure:
(§1) In an alternative series of experiments, (Table 2) PBF was measured quantitatively with a laser dopler flow probe (Perimed). The probe was positioned securely over the vascular bed of one ear and flow monitored continuously. Each inhibitor was infused and CBT measured in the opposing ear. No arterial catheter was placed for blood sampling, consequently XPA was measured in these animals.
As positive control, epinephrine was infused intravenously (1 mg over 2 minutes) at 60 minutes. The resulting vasoconstriction reduced flow to near 0 flow units within 5 minutes.

The nature of series [4]: Rabbit cutaneous bleeding time (CBT). The class given is in vivo. The following applies: bolus dose printed with drug. The method, then: Unanesthetized male New Zealand White rabbits (2.5-3.5 kg) were placed in a standard rabbit restrainer. Ears were shaved and a 20G teflon catheter with flowswitch (Viggo) was placed in the medial artery, flushed with saline and locked with 1 ml of heparinized saline (10 m/ml). A 22G catheter (Abbott) fitted with an injection cap (Medex) was placed in the marginal vein of the same ear. Saline or a GP IIb IIIa receptor antagonist, at a concentration of 1 to 3 mg/ml, was infused via the venous catheter. At time 0, 41% of the dose was given as a bolus over 2 minutes. The remainder was continuously infused over the following 60 minutes. Blood samples (3.2 ml) were collected into syringes without needles via the arterial catheter at -10, -5, 10, 45 and 60 minutes. […]
CBT was measured at -10, -5, 10, and 45 minutes on the opposite ear, using an automated incision-making instrument (SurgicuttR, ITD). […]
as §1

Series [5] can be described thus: Baboon template bleeding time, clotting time and hematology. The class given is in vivo. The procedure: Twenty-four hours before the ex vivo shunt was established, platelets were isolated from 500 ml of blood from the test animal and labelled with ca. 500 microcuries of indium-111 oxine (Medi+Physics, Emeryville, Calif.), which irreversibly and specifically binds to platelets with an efficiency of 50%. Immediately after labelling, these platelets were then injected back into the animal and allowed to circulate for 24 hours. Immediately before the start of the study, fibrinogen that had been isolated from the animal and labelled with iodine-131 (DuPont Nuclear, Boston, Mass.) was also injected back into the animal. Also at this time, baseline determinations of the clotting and template bleeding times were made, and blood samples were drawn for hematology studies.
At one- and two-hour time points, template bleeding times were measured, and blood samples were drawn to assess the hematology aggregation studies. Platelet aggregation studies were performed as described in Example V using ADP as the stimulus.
Upon the completion of each study, each shunt was flushed with lactated Ringer's solution, and each graft was then removed. Sections of these grafts were subjected to liquid scintillation counting to determine their content of residual ^131 iodine-fibrinogen and ^111 indium-platelets. The catheters in the femoral artery and vein were then removed, and hemostasis was achieved by compression. Finally, post-procedural blood samples were drawn, and determinations of template bleeding and clotting times were also made.

Series [6] has as its system platelets. The experiment in a line: Ex vivo platelet aggregation in canine coronary thrombosis model. The note with it: dog, 10 mg/kg, all three time points. The method, then:
For all ex vivo studies (see FIG. 3), control aggregation values were standardized to the percentages of light transmission observed in PRP and PPP samples (0% and 100%, respectively).
Animals were randomly assigned to two treatment groups: vehicle control (i.e., normal saline) or RGD peptides at various concentrations. Peptides were administered intra-atrially in both bolus and continuous injections. Each bolus injection consisted of 0.5 to 10 mg/kg and was administered 15 minutes before application of the current. A continuous infusion of the same peptide was then started immediately after completion of this initial injection. Animals received a 25 μg/kg/min to 200 μg/kg/min infusion. The anti-thrombotic effects of the peptides were monitored until 30 minutes after the occurrence of a persistent, occlusive thrombus or five hours after the initiation of electrical stimulation (whichever resulted first). […]
Platelet counts and ex vivo aggregation studies were performed one hour before and 1, 3, and 5 hours after application of anodal direct current. Samples of arterial blood were drawn into plastic syringes containing 3.8% trisodium citrate (giving a 1:10 final dilution) and platelet aggregation determined as described in Example V.
Platelet aggregation was also determined ex vivo at one, three, and five hours after current application. […]

Setting [7] is: baboon animal 1, immediately after completion of second shunt.

pIC50: −log10 of the molar value. Values joined by “and” are separate entries in the source; they are usually repeats but may differ in a detail not shown here. Identical values can stand only once.

Regarding R(Pen)GHRGDLRCR, the pIC50 – broadly, −log10 of the IC50, conventionally taken in molar units – in series [1] was 4.43.
In the case of R(Pmc)RHRGD(O-Me-Tyr)RCR, the pIC50 in series [1] is 5.21.
In turn, R(Pmc)GHRGD(O-Me-Tyr)OCR gave a pIC50 in series [1] of 5.03. The pIC50 values of the last two substances are within 0.2 log units of each other.
Still for that read-out and setting: for (Pmp)GHRGDLR(Pen)A the value was 5.28; for R(Pen GRGDWPCR [4R], 5.38.
Consider G(Pen)GRGDWPCA, for which the pIC50 in series [1] is 4.90.
On the same count and under the same terms, for Ac(dPen)IPRGD(O-Me-Tyr)RC--NH2 the value was 5.36.
As to Ac--CNPRGD(Y--OMe)AC--NH2 [11K], the “Pre dose bleeding time” value in series [2] was 2.1 min.
In the case of F(Pmc)GHRGD(O-Me-Tyr)RCR, the pIC50 in series [1] was 5.22.
In the case of Ac--CNPRGD(Y--OMe)(Nle)C--NH2 [11V], the “Pre dose bleeding time” value in series [2] was found to be 2.0 min.
In the case of Ac--CNPRGD(Y--OMe)RCNH2 [8X], the PBF came to 263 units in series [3] (time 0 min), 317 units in series [3] (time 10 min) and 293 units in series [3] (time 45 min).
R(Pmc)GHRGD(Phg)RCR had a pIC50 in series [1] of 6.10.
In turn, R(am-Pmp)GRGDWPCR gave a negative logarithm of the IC50 (pIC50) in series [1] of 6.08. This pIC50 and that of the substance before are within 0.2 log units of each other.
Still for that read-out and setting: for R(Pen)GHRGD(Cha)RCR the value was 5.00.
Take G(dPen)GHRGDLRCA: the pIC50 in series [1] is 5.28.
In the case of R(Pmc)GHRGD(Y--OMe)RCR, the PBF in series [3] (time 0 min) is 392 units and 318 units; in series [3] (time 45 min), 360 units and 283 units. The CBT in series [4] (time 0 min) was 2.9 min and 2.1 min; in series [4] (time 45 min), 1.5 min and 1.2 min.
In turn, K(Pen)GRGDTPCA showed a pIC50 in series [1] of 7.82.
With G(Pen)GHRGDLRCA [2G], the “template bleeding and clotting times” value in series [5] (baboon animal 1) was “did not lower”. In series [5] (setting [7]), the “reduction of platelet count” value turned out to be 14% and the “reduction of white blood cell count” value came out at 37%. Moreover, the “effect on template bleeding time, clotting time, all blood cell counts” value in series [5] (baboon animal 2) is on record as “no effect”. Also, in series [6], the “inhibition of ex vivo AA-stimulated aggregation relative to control levels” value is on record as 43-70% and the “inhibition of ex vivo collagen-stimulated aggregation relative to control levels” value is recorded as 12-50%. Besides, the pIC50 in series [1] was 5.92.
In the case of G(Pen)GRGDLPCA, in series [1], the pIC50 is 7.14.
Consider Ac--CNPKGD(Y--OMe)RC--NH2 [11Q], for which, in series [2], the “Pre dose bleeding time” value amounted to 2.1 min.
For Ac--CNPRGD(Y--OMe)EC--NH2 [11J], the “Pre dose bleeding time” value in series [2] came out at 2.1 min.
D(Pmc)GHRGD(O-Me-Tyr)RCR: the pIC50 in series [1] is 5.05.
H(Pmc)GHRGD(O-Me-Tyr)RCR had a pIC50 in series [1] of 5.08. This pIC50 and that of the substance before are within 0.2 log units of each other.
For the substance G(Pen)GRGDFPCA, the negative logarithm of the IC50 (pIC50) in series [1] is 5.57.
In series [1], K(Pmc)GHRGD(O-Me-Tyr)RCK showed a pIC50 of 5.41. This pIC50 and that of the substance before are within 0.2 log units of each other.
In series [1], R(am-Pmp)GHRGDWRCR gave a pIC50 of 5.23.
